Laboratory results reported in ChEMBL document CHEMBL3232887, “Propargyl-linked antifolates are dual inhibitors of Candida albicans and Candida glabrata” (J Med Chem, 2014).

Key:
[1] = Selectivity ratio of IC50 for human DHFR to IC50 for Candida albicans DHFR
[2] = Selectivity ratio of IC50 for human DHFR to IC50 for Candida glabrata DHFR

Ratio IC50 [1]: 5
Ratio IC50 [2]: 8
Structure (SMILES): CCc1nc(N)nc(N)c1C#CC(C)c1cnc(-c2ccccc2)nc1 (configuration not stated)
